Data published in patent publication US20020187514A1, “Identification of molecular targets useful in treating substance abuse and addiction” (priority 1999, published 2002).

Protein sequences, listed by entry. Tags and fused reporters are not part of them. Lines headed by an entry give the natural chain unless they say otherwise; changes in a name come on top.
UniProt P41144: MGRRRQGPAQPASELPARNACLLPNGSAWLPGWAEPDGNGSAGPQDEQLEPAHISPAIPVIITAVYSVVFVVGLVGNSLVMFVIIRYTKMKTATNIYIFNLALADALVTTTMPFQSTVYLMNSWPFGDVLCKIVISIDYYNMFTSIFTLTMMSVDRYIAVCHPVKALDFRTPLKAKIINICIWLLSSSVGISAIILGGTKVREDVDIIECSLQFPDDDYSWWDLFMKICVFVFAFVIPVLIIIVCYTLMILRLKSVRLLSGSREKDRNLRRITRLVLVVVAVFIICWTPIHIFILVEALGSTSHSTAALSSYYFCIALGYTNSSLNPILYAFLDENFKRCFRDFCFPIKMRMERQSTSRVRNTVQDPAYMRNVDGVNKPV

Molecular target: Opiate, Kappa 1 (UniProt P41144)
Assay: Opiate, Kappa 1; [3H]U-69593
Type: binding
Conditions: read-out: Ref Kj; reference compound, QA/QC

In the case of `CN(C(=O)Cc1ccccc1)[C@H]1CC[C@@]2(CCCO2)C[C@@H]1N1CCCC1`, the Ki is reported as 411 pM.
